Consider 1 compound from patent publication US20260008754A1, “N-SUBSTITUTED DERIVATIVES OF L-(L-PHENYL-3-ARYL)-LFF-PYRAZOL-4-YL)[…], METHOD FOR THEIR PRODUCTION AND THEIR APPLICATIONS” (priority 2022, published 2026).

Sequences of proteins named here, by UniProt entry; tags and fusion partners are left off.
UniProt P35372, whole entry: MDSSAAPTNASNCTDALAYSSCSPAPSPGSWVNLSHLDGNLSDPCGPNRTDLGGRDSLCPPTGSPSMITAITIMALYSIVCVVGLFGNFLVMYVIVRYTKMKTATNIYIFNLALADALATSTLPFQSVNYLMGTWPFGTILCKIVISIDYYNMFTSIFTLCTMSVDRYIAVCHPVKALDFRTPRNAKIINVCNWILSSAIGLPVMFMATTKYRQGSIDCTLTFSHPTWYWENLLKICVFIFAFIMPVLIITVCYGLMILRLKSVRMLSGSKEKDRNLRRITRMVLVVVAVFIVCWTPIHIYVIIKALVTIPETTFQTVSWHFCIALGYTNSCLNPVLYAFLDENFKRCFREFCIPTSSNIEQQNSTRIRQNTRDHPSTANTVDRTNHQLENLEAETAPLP

Structures are written as SMILES.

For this assay, the target named is μ opioid receptor (Homo sapiens, UniProt P35372). As to the kind of experiment: μ opioid receptor agonism, G protein signaling pathway. The class given is cell-based. The conditions noted are these: read-out: EC50 (G protein).

What is called EC50 is the midpoint of the concentration-response curve. For the compound `CN(CCc1ccnn1C)Cc1cn(-c2ccccc2)nc1-c1ccccc1`, the EC50 was 538 nM.
